Data on one compound can be found in article PMC8269116 (Journal of psychopharmacology (Oxford, England), 2019).

Protein sequences, listed by entry. Tags and fused reporters are not part of them.
UniProt Q01959, whole entry: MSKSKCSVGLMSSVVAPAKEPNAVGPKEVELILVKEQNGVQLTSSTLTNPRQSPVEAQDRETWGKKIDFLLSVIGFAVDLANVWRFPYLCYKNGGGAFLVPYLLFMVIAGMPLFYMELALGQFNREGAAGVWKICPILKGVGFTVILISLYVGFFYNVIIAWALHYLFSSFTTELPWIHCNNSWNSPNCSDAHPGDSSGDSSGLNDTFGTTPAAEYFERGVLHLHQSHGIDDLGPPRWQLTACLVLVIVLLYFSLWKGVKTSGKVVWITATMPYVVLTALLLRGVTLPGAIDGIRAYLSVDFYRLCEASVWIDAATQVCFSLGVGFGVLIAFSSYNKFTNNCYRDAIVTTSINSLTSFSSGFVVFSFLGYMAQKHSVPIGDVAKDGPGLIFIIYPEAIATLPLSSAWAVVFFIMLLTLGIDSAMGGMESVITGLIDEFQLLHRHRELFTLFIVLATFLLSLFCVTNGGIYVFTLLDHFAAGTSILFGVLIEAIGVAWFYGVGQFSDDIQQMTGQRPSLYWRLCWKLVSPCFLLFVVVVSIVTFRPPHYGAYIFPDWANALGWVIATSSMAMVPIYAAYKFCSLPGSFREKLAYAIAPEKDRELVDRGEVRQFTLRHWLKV

In one assay the test system is 5-HT2A receptor. The following applies: compared to MDMA; ref Rickli et al., 2015b; cited from earlier work.
In the next assay the target is DAT (Homo sapiens, UniProt Q01959). The assay can be described thus: [3H]dopamine uptake inhibition in HEK 293 cells overexpressing human DAT. Format: cell-based. The following applies: 1/DAT IC50 : 1/SERT IC50; mean and 95% confidence interval.

For `CC(N)Cc1ccc2c(c1)OCO2` (centres unmarked) [MDA, 3,4-methylenedioxyamphetamine, reference compound], the “5-HT2A receptor activation potency, fold more potent than MDMA” value in the assay with 5-HT2A receptor was “about 10 fold”. Also, the DAT/SERT ratio on DAT is 0.25 (0.17–0.38).
